Test results published in publication PMC8729806, “Chaperones mainly suppress primary nucleation during formation of functional amyloid required for bacterial biofilm formation†” (Chemical Science, 2021).

Molecular target: CsgA from E. coli (residues 21-151), without its signal sequence (E. coli) (UniProt P28307)

fold reduction of the primary nucleation rate constant kn of spontaneous CsgA fibrillation (ThT kinetics, Amylofit), at 2 μM M-TTR (fold reduction): 6
Substance: engineered monomeric TTR variant (M-TTR, F87M/L110M) (from UniProt P02766 21-147) (natural protein)
